# Only a part is listed here, and it is no random draw. Calls of active or inactive are those of the source.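 Rule for the calls: active = at least 40% inhibition at 20 µM here, with at most 30% in a related deaminase screen; inactive = the rest.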
# Amino acid sequences for entries named in this document (tags omitted). A change or cut given only in a name is not applied to a line headed by its entry.
# UniProt P31941: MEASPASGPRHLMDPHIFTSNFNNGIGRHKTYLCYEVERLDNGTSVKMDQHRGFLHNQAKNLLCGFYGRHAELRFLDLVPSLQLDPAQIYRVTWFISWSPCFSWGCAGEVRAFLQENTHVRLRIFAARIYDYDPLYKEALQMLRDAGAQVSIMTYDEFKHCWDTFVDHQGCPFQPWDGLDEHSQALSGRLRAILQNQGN
# Target: DNA dC->dU-editing enzyme APOBEC-3A (Homo sapiens) (UniProt P31941)
# Test: blockers of A3A cytidine deamination on DNA – biochemical, FAM/TAMRA oligo cleavage fluorescence, selectivity assay for APOBEC3G inhibitor project, primary screen (AID 493011);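 note: plate controls were A3A with DMSO for no effect and wells lacking A3A enzyme for full effect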
# Details: recombinant A3A, FAM/TAMRA ssDNA deamination fluorescence; at 20 µM; stronger effect = higher value
row,Compound,inhibition
1,COc1cc(C2NCCC3(OCCO3)C2(C)C)cc(OC)c1OC (stereo unspecified),inactive: -0.211%
2,CCOP(=O)(Nc1cccc2ccccc12)OCC,inactive: -0.538%
3,CCCOP(=S)(Nc1nc(N)cc(=O)[nH]1)OCCC,inactive: -5.35%
4,Cc1ccc(NCCc2c([N+](=O)[O-])cc([N+](=O)[O-])cc2[N+](=O)[O-])cc1,inactive: 4.27%
5,O=[As](O)(c1cccc(O)c1)c1cccc(O)c1,inactive: 2.14%
6,Cc1cccc(OCC(=O)OC2CN3CCC2CC3)c1 (stereo unspecified),inactive: -1.51%
7,COc1cc(C(=O)NCC2(N3CCOCC3)CCCCC2)cc(Cl)c1OC(C)C,inactive: -0.561%
8,O=[As](O)(O)c1cccnc1,inactive: 5.05%
9,CS(=O)(=O)c1ccc(Cl)c(NC(=O)COC(=O)C(O)(c2ccccc2)c2ccccc2)c1,inactive: -2.11%
10,O=C(OC1CN2CCC1CC2)c1ccc(Cl)cc1 (stereo unspecified),inactive: 0.928%
11,CN(C)C(=O)c1cc([N+](=O)[O-])cc2c1-c1c(cc([N+](=O)[O-])cc1[N+](=O)[O-])C2=O,inactive: -2.35%
12,O=[N+]([O-])c1ccc2c(c1)nnn2O,inactive: 0.784%
13,CN(C(=O)Cc1ccc(Cl)c(Cl)c1)[C@H]1CC[C@@]2(CCCO2)C[C@@H]1N1CCCC1,inactive: -1.67%
14,N#CCCN(C(=O)COC(=O)C(O)(c1ccccc1)c1ccccc1)c1ccc(F)cc1,inactive: -2.57%
15,CCOP1(=S)c2c(C)nn(CCC#N)c2N=C(c2ccc(F)cc2)N1C (stereo unspecified),inactive: -3.73%
16,CN(C(=O)Cc1ccccc1)[C@@H]1CC[C@]2(CCCO2)C[C@H]1N1CCCC1,inactive: 0.127%
17,NC(=O)Nc1ccc([As](=O)(O)O)cc1,inactive: -3.24%
18,Nc1ccccc1[As](=O)(O)c1ccccc1,inactive: -11.2%
19,O=C(O)COc1ccc([As](=O)(O)O)cc1[N+](=O)[O-],inactive: 2.35%
20,CS(=O)(=O)c1cc([N+](=O)[O-])c2no[n+]([O-])c2c1,inactive: 11.5%
21,CCOP1(=S)c2c(C)nn(CCC#N)c2N=C(c2ccccc2F)N1C (stereo unspecified),inactive: -4.75%
22,O=P(Nc1nccs1)(c1ccccc1)c1nc2ccccc2s1 (stereo unspecified),inactive: 24.7%
23,O=P(Nc1nccs1)(Oc1ccccc1)Oc1ccccc1,inactive: -0.547%
24,O=P1(Nc2ccc(Br)cn2)COc2ccccc2OC1,inactive: -0.093%
25,NS(=O)(=O)c1cccc(NC(=O)COC(=O)C(O)(c2ccccc2)c2ccccc2)c1,inactive: -2.65%
26,Cc1ccc(OCC(=O)OC2CN3CCC2CC3)cc1 (stereo unspecified),inactive: -0.415%

row,Compound,inhibition
1,O=[As](O)(c1cccs1)c1cccs1,inactive: -0.927%
2,Nc1cccc([As](=O)(O)c2ccccc2)c1,inactive: -12.8%
3,O=P1(Nc2ncccn2)COc2ccccc2OC1,inactive: 0.344%
4,O=C(/C=C/c1ccccc1)OC1CN2CCC1CC2 (stereo unspecified),inactive: -3.52%
5,CN(C)C1(CNC(=O)c2ccc(S(C)(=O)=O)cc2)CCCCC1,inactive: -2.91%
6,Cc1nn(-c2ccccc2)c2c1P(=O)(N1CCOCC1)N(C)C(c1ccccc1)=N2 (stereo unspecified),inactive: 0.278%
7,CC1CCC(C(C)C)C(OP(=O)(Nc2ccccn2)c2ccccc2)C1 (stereo unspecified),inactive: -0.185%
8,Cc1ccc(C(=O)OC2CN3CCC2CC3)cc1 (stereo unspecified),inactive: 0.057%
9,O=[As](O)(c1ccccc1Br)c1ccccc1Br,inactive: 0.267%
10,CC1(CBr)Cn2c(nc3ccccc3c2=O)S1 (stereo unspecified),inactive: -0.59%
11,CC(C)/C=N\N=C(\N)N[N+](=O)[O-],inactive: -3.24%
12,CN(C(=O)Cc1ccc(Cl)c(Cl)c1)[C@@H]1CCCC[C@H]1N1CCCC1,inactive: -3.29%
13,COc1ccccc1CNC(=O)COC(=O)C(O)(c1ccccc1)c1ccccc1,inactive: 0.538%
14,Clc1n[nH]nc1-c1nn[nH][15n]1,inactive: 3.86%
15,CC(C)(C)C(=O)NC(Sc1ncccn1)C(Cl)(Cl)Cl (stereo unspecified),inactive: -2.56%
16,CN(CCCl)Cc1cc(Cl)c(NC2=NCCN2)c(Cl)c1,inactive: -5.79%
17,CCOP(=O)(Nc1ccc(C)cn1)OCC,inactive: -1.3%
18,O=P1(Nc2ccccn2)COc2ccccc2OC1,inactive: -3%
19,CCC1=CC2Cc3nc4ccc(Cl)cc4c(N)c3C(C1)C2 (stereo unspecified),inactive: 3.88%
20,CCOP(=O)(NC(=NC(C)c1ccccc1)NC(C)c1ccccc1)OCC (stereo unspecified),inactive: -0.31%
21,CCC(C)N(CC(C)C)C(=S)SC(NC(C)=O)C(Cl)(Cl)Cl (stereo unspecified),inactive: 3.87%
22,CCOC(=O)c1ccc(NC(=O)C(C)(CCl)SC)cc1 (stereo unspecified),inactive: -4.57%
23,O=C(OC1CN2CCC1CC2)c1cccc([N+](=O)[O-])c1 (stereo unspecified),inactive: -3.47%
24,O=C(COc1ccccc1)OC1CN2CCC1CC2 (stereo unspecified),inactive: 2.67%
25,O=C(Nc1ccncc1[N+](=O)[O-])c1ccc([N+](=O)[O-])cc1[N+](=O)[O-],inactive: -3.57%
26,COP1(=S)c2c(C)nn(CCC#N)c2N=C(c2ccc(F)cc2)N1C (stereo unspecified),inactive: 1.37%

row,Compound,inhibition
1,O=P(Nc1ccccn1)(c1cccc2ccccc12)c1cccc2ccccc12,inactive: -3.77%
2,Cc1cc(SC(NC=O)C(Cl)(Cl)Cl)ncn1 (stereo unspecified),inactive: -7.67%
3,CCOC(=O)Nc1cccc([As](=O)(O)O)c1,inactive: -0.123%
4,CCCCOc1ccc(C(=O)NCC2(N3CCCCC3)CCCCC2)cc1OC,inactive: -2.46%
5,Cc1cc(SC(NC(=O)c2ccccc2)C(Cl)(Cl)Cl)nc(C(C)C)n1 (stereo unspecified),inactive: 3.69%
6,CCOC(=O)Nc1ccc([As](=O)(O)O)c(O)c1,inactive: 2.55%
7,CCN(CC)C(=S)SC(NC=O)C(Cl)(Cl)Cl (stereo unspecified),inactive: -3.05%
8,O=C(OC1CN2CCC1CC2)c1cccc2[nH]cnc12 (stereo unspecified),inactive: 1.04%
9,CC(C)NC(=O)NP(=O)(Oc1ccccc1)Oc1ccccc1,inactive: 0.574%
10,O=[N+]([O-])c1cc([N+](=O)[O-])c(-c2ccn[nH]2)s1,inactive: 5.83%
11,CC(C)c1ccc(OP(=O)(Nc2ccccn2)Oc2ccccc2F)cc1 (stereo unspecified),inactive: 6.13%
12,ClCCSc1nnc(-c2cccnc2)o1,inactive: 3.8%
13,Cc1ccc2nc3c(c(C)c2c1)CC(C(Cl)Cl)S3 (stereo unspecified),inactive: -0.845%
14,Cc1ccc(OP(=O)(Nc2ccc([N+](=O)[O-])cn2)Oc2ccc(C)cc2)cc1,inactive: 2.15%
15,O=[As](O)(c1ccc(O)cc1)c1ccccc1O,inactive: -7.4%
16,C[As](=O)(O)c1cccc(C(=O)O)c1,inactive: 0.152%
17,COc1cc(C(=O)NCC2(N3CCOCC3)CCCCC2)ccc1OCC(C)C,inactive: 1.04%
18,COc1ccc(N/C(=N/P(=O)(N2CCOCC2)N2CCOCC2)N2CCOCC2)cc1,inactive: 3.27%
19,COc1ccc2nc(NP(=O)(c3ccccc3)c3ccccc3)sc2c1,inactive: -0.314%
20,COc1cc(I)ccc1[As](=O)(O)O,inactive: 1.81%
21,O=C(OC1CN2CCC1CC2)C12CC3CC(CC(C3)C1)C2 (stereo unspecified),inactive: 1.09%
22,Cc1cc(=O)[nH]c(N[N+](=O)[O-])n1,inactive: -1.53%
23,Cc1c2c(nc3ccccc13)SC(C(Cl)Cl)C2 (stereo unspecified),inactive: -3.34%
24,CC(C)CC(=O)NC(Sc1ccc(Cl)cc1)C(Cl)(Cl)Cl (stereo unspecified),inactive: -2.81%
25,Nc1cc(N)c2nonc2c1[N+](=O)[O-],inactive: 6.13%
26,Oc1ccccc1CNc1ccccn1,inactive: -3.53%

row,Compound,inhibition
1,Cc1c2non([O-])c-2c(C)[n+](=O)[n+]1[O-],inactive: -0.767%
2,O=C(NC(Sc1ccncn1)C(Cl)(Cl)Cl)c1ccccc1 (stereo unspecified),inactive: 2.33%
3,COc1ccccc1OP(=O)(Nc1ccc(C)cn1)Oc1ccccc1OC,inactive: 2.21%
4,Cc1ccc(OP(=O)(Nc2nccs2)Oc2ccc(C)cc2)cc1,inactive: -4.46%
5,Clc1ccc(Cl)c(NC2=NCC(CBr)S2)c1 (stereo unspecified),inactive: -2.31%
6,CN1CCCC(OC(=O)C(c2ccccc2)c2ccccc2)C1 (stereo unspecified),inactive: -2.37%
7,NC(=O)c1cc([N+](=O)[O-])cc([N+](=O)[O-])c1N,inactive: -2.56%
8,CN(C(=O)Cc1ccc(Cl)c(Cl)c1)[C@H]1CCCC[C@H]1N1CCCC1,inactive: 0.664%
9,Cc1ccc(N/C(=N/P(=O)(N2CCOCC2)N2CCOCC2)N2CCOCC2)cc1,inactive: -1.64%
10,CCN(N=Nc1nonc1N)c1nonc1N,inactive: 0.074%
11,O=[N+]([O-])c1cc([N+](=O)[O-])c(CCN2CCOCC2)c([N+](=O)[O-])c1,inactive: 2.21%
12,CCOP(=O)(Nc1ccccc1)OCC,inactive: 1.75%
13,Cc1cc(SC(NC(=O)c2ccc(F)cc2)C(Cl)(Cl)Cl)ncn1 (stereo unspecified),inactive: -1.92%
14,Cc1ccc(NP(=O)(Oc2ccccc2F)Oc2ccccc2F)nc1,inactive: -1.1%
15,CN(C(=O)Cc1ccc(Cl)c(Cl)c1)[C@H]1CCCC[C@@H]1N1CCCC1,inactive: -2.1%
16,O=C(O)c1ccccc1[As](=O)(O)O,inactive: -2.57%
17,CC(=O)Nc1ccc([As](=O)(O)O)cc1,inactive: 1.55%
18,O=P(Nc1nc2ccc(Cl)cc2s1)(c1ccccc1)c1ccccc1,inactive: -4.57%
19,O=[N+]([O-])c1cccc(NC2=NCC(CBr)S2)c1 (stereo unspecified),inactive: -3.5%
20,CC(C)(C)C(=O)NC(Sc1ccncn1)C(Cl)(Cl)Cl (stereo unspecified),inactive: -3.04%
21,O=[N+]([O-])c1ncn(CCn2ncnc2[N+](=O)[O-])n1,inactive: -0.796%
22,O=C(Nc1cc([As](=O)(O)O)ccc1O)c1ccccc1,inactive: -1.79%
23,CC(C)=N/N=C(\N)N[N+](=O)[O-],inactive: -0.508%

# Reference: PubChem BioAssay AID493011 (Sanford-Burnham Center for Chemical Genomics, 2011)
